ALDH1A1 block – blocks purified human ALDH1A1 activity. 220,000 tested, 7.3% active. Potency, µM (top dose mostly 75.3 µM), for inactives: top-dose activity, negative = inhibition, actives largely listed as inhibitors. Purified ALDH1A1, NADH fluorescence, propionaldehyde substrate; active = well fitted inhibition curve with a large enough effect, not every such curve was filed as active; inconclusive = small, poorly fitted or top-dose-only effect, or another doubt; inactive = no such curve, though single readings can be large or run the other way;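 also: potency is read from the fitted curve at half-maximal effect; plate controls were no enzyme wells and a reference inhibitor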
miR-21 reporter – miR-21 reporter, rising signal; Potency, µM (titrated, usually from 38.3 µM), without a hit: at the highest dose reporter change, positive = more light; AID 2288; 340,000 tested, under 10 active; HeLa miR-21 FLuc reporter, luciferase, 48 h; active = well fitted rising curve with a large enough effect; inconclusive = small, poorly fitted or top-dose-only effect; inactive = no such curve, though single readings can be large or run the other way;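 note: % of control where 0% means no effect; miR-21 action dims this reporter so a rising signal means less miR-21 action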
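Using DMEM plus 10% FBS, HeLa miR-21-FLuc cells are incubated with test compounds (final up to about 40uM) for 48 hours; firefly luciferase signal is then imaged following reagent-mediated lysis.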
Sfp PPTase inh – inhibitors of Bacillus subtilis Sfp phosphopantetheinyl transferase. Q9F4F7. Biochemical Sfp PPTase activity, qHTS. Potency, µM, for the others: max response, negative = inhibition, most hits filed as inhibitors. actives 3.5% (n = 310,000). AID 1490; active means well fitted inhibition curve with a large enough effect; inconclusive means small, poorly fitted or top-dose-only effect, or another doubt; inactive means no such curve, though single readings can be large or run the other way;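 further: the enzyme is Sfp with the accession as filed and its product quenches rhodamine fluorescence; potency means the concentration at half of the fitted maximal effect; 0% = enzyme reaction without inhibitor and -100% = no enzyme wells; top concentration of the series not given in the record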
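Buffer: 50 mM Hepes-Na pH 7.6, 10 mM MgCl2, 0.01% Nonidet P-40, 0.01% BSA. Enzyme 15 nM, pre-exposed to compound 15 min; substrates then added and fluorescence change tracked over 30 min.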
KDM4E inh – inhibitors of human JMJD2E histone demethylase. Potency, µM (doses to about 57.1 µM), without a hit: at the top dose activity change, negative = inhibition, hits mostly inhibitors. AID 2147. B2RXH2. 230,000 tested, 1.6% active. JMJD2E catalytic domain, FDH-coupled NADH fluorescence (FDH is formaldehyde dehydrogenase);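 also: potency is read from the fitted curve at half-maximal effect; 0% = wells with enzyme and -100% = buffer wells without enzyme; nearly all actives have a fitted effect of over 50% in size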
G9a block – blocks human histone lysine methyltransferase G9a. Potency, µM (titrated, usually from 102 µM), inactives show at the top dose activity, negative = inhibition, usual class: inhibitors. AID 504332. G9a H3K9 monomethylation, AlphaScreen, 2 h. Q96KQ7. 350,000 tested, 8.8% active; also: potency is read from the fitted curve at half-maximal effect; % is scaled to controls: 0 for no effect and ±100 for the full control effect; nearly all actives have a fitted effect of over 75% in size
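Step 1: enzyme (final 20 nM) with compound, 15 min RT. Step 2: substrate peptide 500 nM and SAM 20 uM, 2 h RT. Step 3: anti-H3K9me1 antibody and AlphaScreen beads, 10 min, then plate read.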
Lamin A splicing – modulators of lamin A splicing; 200,000 tested, 0.01% active; Potency, µM (series often up to 46.1 µM), inactives show top-dose ratio change, negative = inhibition, actives largely listed as inhibitors; HeLa LMNA splicing GFP/RFP minigene ratio, 48 h; AID 1487; active = well fitted inhibition curve with a large enough effect in the signal ratio, with a control signal flat, not every such curve was filed as active; inconclusive = small, poorly fitted or top-dose-only effect, or effect the other way, or a change in a side signal; the % refers to the signal ratio; also: potency is read from the fitted curve at half-maximal effect; % is scaled to controls: 0 for no effect and ±100 for the full control effect
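S3 HeLa cells stably expressing lamin A-EGFP splicing minigene plus DsRed2, 600 cells/well, 48 h compound exposure at 37C. Laser-scanning cytometry; analysed as GFP (500-530 nm)/RFP (575-640 nm) total intensity ratio; 0.5% DMSO vehicle.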
An asterisk follows results filed as active; ? = inconclusive; / = no result given; [ ] = dose if it differs, or a comment. Rows were chosen to be rich in hits. Some 13% of all compounds tested hit in one or more screens of this group. Unless noted, calls follow the shape of the dose curve; as a rule, active = well fitted curve in the direction sought with a large enough effect; inconclusive = small, poorly fitted or top-dose-only effect, or another doubt; inactive = no such curve, though single readings can be large; an effect the other way counts as inactive or inconclusive.

SMILES	ALDH1A1 block	miR-21 reporter	Sfp PPTase inh	KDM4E inh	G9a block	Lamin A splicing
CCOc1ccc(NC(=O)C(NS(=O)(=O)c2ccc3c(c2)CCN3C(C)=O)C(C)C)cc1 (stereo not drawn)	/	1%	/	/	3%[59 µM]	/
Cc1ccc(C(=O)CC(C(=O)O)n2cccn2)cc1 (stereo not drawn)	8%	-2%	-2%	4%	50µM*	6%
COC(=O)C(CC(=O)c1ccc(Br)cc1)n1nc(C)cc1C (stereo not drawn)	/	-3%	50µM*	/	/	/
Cc1ccc(C(=O)CC(C(=O)O)n2cncn2)cc1 (stereo not drawn)	/	-5%	-5%	/	/	/
Cc1ccc(C(=O)CC(C(=O)O)n2cnc([N+](=O)[O-])n2)cc1 (stereo not drawn)	13%	-3%	8%	-4%	/	14%[46 µM]
COC(=O)C(CC(=O)c1ccc(C)cc1)n1nc(C)cc1C (stereo not drawn)	/	-3%	-1%	/	79µM*	/
COCCCNC(=O)Cn1c(=O)n(-c2ccc(Cl)cc2)c(=O)c2c3c(sc21)CCCCC3	/	-2%	/	/	6%[59 µM]	/
CCC(C)NS(=O)(=O)c1cc2c3c(c1)CCN3C(=O)CC2 (stereo not drawn)	/	0%	7%	/	10%	/
CCC1CCCCN1CC(=O)Nc1cc(C)nn1-c1nc(C)cc(C)n1 (stereo not drawn)	14µM*	26%	-8%	-1%	-1%	-3%
Cc1cc(C)nc(-n2nc(C)cc2NC(=O)CN2CCC(C)CC2)n1	3.5µM*	-1%	4%	3%	-14%	3%
Cc1cc(C)nc(-n2nc(C)cc2NC(=O)CN2CCCC2)n1	?	-4%	9%	-5%	-4%	1%[46 µM]
CSCC[C@@H](C(=O)O)N(C)C	7%[13.5 µM]	/	/	/	/	/
COc1ccc(C2NC(=S)NC3=C2CCc2cc(OC)ccc23)cc1 (stereo not drawn)	?	-11%	-11%	?	40µM*	9%
COC(=O)c1ccc(NC(=O)CCCN2C(=O)NC(C)(C)C2=O)cc1	/	/	/	/	-44%	/
COc1cccc(CNC(=O)c2ccc3nc(-c4ccc(F)cc4)c(-c4ccc(F)cc4)nc3c2)c1	/	16%	/	/	1%[59 µM]	?
O=C(O)[C@@H]1[C@@H]2C[C@H]([C@@H](Br)[C@H]2N2C(=O)CCC2=O)[C@@H]1C(=O)O	-3%[13.5 µM]	/	/	/	/	/
COc1ccc(CC(=O)N/N=C(\C)c2cccnc2)cc1	/	1%	-5%	/	/	/
CN=c1scc(-c2ccc(OC)cc2)n1/N=C(\C)c1cccnc1	9%	-9%	-21%	-12%	32µM*	-2%[46 µM]
c1ccc(-n2cnc3cc(NCc4cccs4)ccc32)cc1	?	-12%	-20%	?	-7%[2.33 µM]	?
c1ccc(-n2cnc3cc(NCc4ccco4)ccc32)cc1	?	-39%	-4%	?	11µM*	?

In the list so far, two contain bromine.
SMILES	ALDH1A1 block	miR-21 reporter	Sfp PPTase inh	KDM4E inh	G9a block	Lamin A splicing
COC(=O)C(CC(=O)c1ccc(Br)cc1)n1nc(C)cc1C (stereo not drawn)	/	-3%	50µM*	/	/	/
O=C(O)[C@@H]1[C@@H]2C[C@H]([C@@H](Br)[C@H]2N2C(=O)CCC2=O)[C@@H]1C(=O)O	-3%[13.5 µM]	/	/	/	/	/

Remaining list, next part:
SMILES	ALDH1A1 block	miR-21 reporter	Sfp PPTase inh	KDM4E inh	G9a block	Lamin A splicing
O=C(NCCc1ccccc1)c1ccc(CSc2nc3cccnc3n2Cc2ccccc2F)cc1	/	-17%	/	/	2µM*	-20%[46 µM]
CC(OC(=O)c1cccc(-n2cnnn2)c1)c1nc2ccccc2c(=O)[nH]1 (stereo not drawn)	/	/	/	/	-14%[12.7 µM]	/
COC(=O)Nc1sc2c(c1C(=O)NCc1ccco1)CCC2	?	-1%	?	-5%	-24%[59 µM]	-2%
O=C(Nc1sc2c(c1C(=O)NCc1ccco1)CCCC2)c1ccc2c(c1)OCO2	?	-48%	45µM*	?	-41%[59 µM]	-6%
COC(=O)Nc1sc2c(c1C(=O)NCc1ccco1)CCCC2	?	3%	79µM*	0%	-34%	7%
Cc1cc(-c2ccc(C(C)C)c(S(=O)(=O)N3CC(=O)Nc4ccccc43)c2)on1	/	-3%	-2%	/	7%	/
O=c1onc(-c2ccc(Cl)cc2Cl)n1-c1cccnc1	-1%	-13%	29%	-2%	4%	/
COc1ccc(Cl)cc1-c1n[nH]c(=S)n1Cc1ccccc1	/	3%	-1%	/	3.2µM*	/
COc1ccc(-c2n[nH]c(=S)n2C2CCCCC2)cc1	?	-4%	14%	-1%	2.5µM*	?
Cc1ccsc1-c1n[nH]c(=S)n1C1CCCCC1	3%	-5%	-3%	-19%	1.6µM*	0%
Cc1cc(Cl)ccc1OCc1n[nH]c(=S)n1C1CCCCC1	?	5%	10%	-6%	?	-14%
COc1ccc(-n2c(-c3ccc(Br)cc3)n[nH]c2=S)cc1	/	0%	-10%	/	-28%[0.501 µM]	/
COc1ccc(Cl)cc1-c1n[nH]c(=S)n1C1CCCCC1	5%	7%	12%	-7%	1.4µM*	-6%
Cc1ccsc1-c1nc(CN2CCCC2c2ccc(F)cc2)c(C)o1 (stereo not drawn)	?	-11%	7%	?	-5%	-12%[46 µM]
Cc1cc2c(NCc3ccccc3)ncnc2s1	/	17%	4%	/	?	/
S=c1[nH]nc(-c2cccnc2)n1C1CCCCC1	-1%	-8%	-19%	-4%	20µM*	-18%
CSc1ccc(C(=O)C2CCCN(C(=O)c3csc(C(C)=O)c3)C2)cc1 (stereo not drawn)	2µM*	-4%	12%	5%	/	1%[46 µM]
COc1ccc(C(=O)C2CCCN(C(=O)c3csc(C(C)=O)c3)C2)c(C)c1 (stereo not drawn)	/	5%	10%	/	-3%[0.501 µM]	/
CC(=O)C1C(=O)c2c(cccc2[N+](=O)[O-])C1=Nc1ccccc1C (stereo not drawn)	?	-16%	-6%	-5%	2%	0%
CC(=O)C1C(=O)c2c(cccc2[N+](=O)[O-])C1=Nc1cccc(Cl)c1 (stereo not drawn)	/	-2%	56µM*	-9%	/	/

Fetched by compound from the list above (2):
SMILES	ALDH1A1 block	miR-21 reporter	Sfp PPTase inh	KDM4E inh	G9a block	Lamin A splicing
S=c1[nH]nc(-c2cccnc2)n1C1CCCCC1	-1%	-8%	-19%	-4%	20µM*	-18%
COc1ccc(-n2c(-c3ccc(Br)cc3)n[nH]c2=S)cc1	/	0%	-10%	/	-28%[0.501 µM]	/

Following part
SMILES	ALDH1A1 block	miR-21 reporter	Sfp PPTase inh	KDM4E inh	G9a block	Lamin A splicing
CN(C)c1ccc(CNC(=O)CCNS(=O)(=O)c2cc(Br)cnc2N)cc1	/	14%	-1%	/	35µM*	/
COc1cc(C(=O)Nc2c(C(=O)Nc3ccccc3F)oc3ccccc23)cc(OC)c1OC	/	11%	/	/	14%[59 µM]	/
Cc1c(C(=O)Nc2ccc(F)c(F)c2)oc2ccc(S(=O)(=O)N(C)C3CCCCC3)cc12	/	27%	/	/	-4%[59 µM]	-18%[46 µM]
COc1cc(C(=S)N2CCOCC2)ccc1OS(=O)(=O)c1ccc(Cl)cc1	/	6%	-5%	/	35µM*	/
COc1ccc(S(=O)(=O)Oc2ccccc2C(=S)N2CCOCC2)cc1	/	-4%	-19%	/	25µM*	/
COc1ccc(S(=O)(=O)Oc2cccc(C(=S)N3CCOCC3)c2)cc1	/	14%	4%	/	-6%	/
COc1cc(C(=S)N2CCOCC2)cc(OC)c1OS(=O)(=O)c1ccc(Cl)cc1	/	-4%	45µM*	/	-12%[0.501 µM]	/
COc1cccc(C(=S)N2CCOCC2)c1OS(=O)(=O)c1ccc(Cl)cc1	/	6%	-27%	/	3%[12.7 µM]	/
O=[N+]([O-])c1ccccc1S(=O)(=O)Oc1ccc(C(=S)N2CCOCC2)cc1	?	-8%	-7%	-10%	28µM*	-3%

Shown with the structure last: entries from further up.
ALDH1A1 block	miR-21 reporter	Sfp PPTase inh	KDM4E inh	G9a block	Lamin A splicing	compound
/	1%	-5%	/	/	/	COc1ccc(CC(=O)N/N=C(\C)c2cccnc2)cc1
/	17%	4%	/	?	/	Cc1cc2c(NCc3ccccc3)ncnc2s1

Screening data (PubChem BioAssay)
